## Ab-95 light chain CDR variants: yeast mating affinities

The measurements come from Engelhart et al. 2022 (doi:10.1038/s41597-022-01779-4) through the FLAb antibody collection.

Antigen: PDVDLGDISGINAS, a 14-residue peptide of the SARS-CoV-2 spike HR2 region.

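Phage display of a naive human antibody library on the peptide gave the parent. Variants in AAYL52 differ from the parent at up to three CDR positions; double and triple changes were sampled at random. AlphaSeq pools MATa yeast showing the antibodies with MATalpha yeast showing the peptide. Pairs that bind mate more often; barcode pairs of the diploids are counted by sequencing. Read counts were normalised to the haploid input and turned into Kd by a linear fit to BCL2-family pairs of known affinity, for each replicate. Mating was done three times.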

Parent scFv Ab-95: VH joined to VL by a (GGGGS)3 linker. Changes lie in the light chain CDRs alone.
VH: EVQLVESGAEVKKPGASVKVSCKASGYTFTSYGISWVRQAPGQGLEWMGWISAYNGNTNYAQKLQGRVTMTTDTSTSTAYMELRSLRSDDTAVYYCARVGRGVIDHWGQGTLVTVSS
VL: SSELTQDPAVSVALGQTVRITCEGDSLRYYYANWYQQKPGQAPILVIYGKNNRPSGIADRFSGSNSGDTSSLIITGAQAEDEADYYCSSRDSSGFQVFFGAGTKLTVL

Each variant is given by its three light chain CDRs, as the data file delimits them; those of the parent are EGDSLRYYYAN, GKNNRPS, SSRDSSGFQVF.
Values are log10 of the apparent Kd in nM; lower means stronger binding.
Replicates are averaged; those with no signal do not enter the mean.
"nd" means that the variant was in the library but no mating with the target was seen in that replicate; the authors take this as a sign of poor binding, and no number exists.

| # | CDR-L1 | CDR-L2 | CDR-L3 | log10 Kd (nM) by replicate | log10 Kd (nM), mean | empty controls |
|---|---|---|---|---|---|---|
| 1 | EGDSVRYYYAN | GKHNRPS | SDRDSSGFQVF | nd nd nd | nd | 1/9 (3.09) |
| 2 | EGDSLRYYYAN | GKNNRPS | SSRDNSAFDVF | 2.56 2.51 3.03 | 2.70 | 3/9 (4.06) |
| 3 | EGDSLRYYYAN | GKNNIPS | DSRDSSGFQVF | 4.04 nd 3.63 | 3.83 | 3/9 (4.08) |
| 4 | YGDSLRYYYCN | GKNCRPS | SSRDSSGFQVF | 3.51 4.09 2.92 | 3.51 | 6/9 (3.97) |
| 5 | EGDSLRNYYAN | GKNYRPS | SSRDSSCFQVF | nd 3.62 nd | 3.62 | 1/9 (3.16) |
| 6 | EGDCLRYYYAN | GKNRRPS | SSRDSSGFQVV | nd 3.20 nd | 3.20 | 4/9 (4.24) |
| 7 | AGDSLRYYYAN | GFNNRPS | SSCDSSGFQVF | nd nd 3.76 | 3.76 | 0/9 |
| 8 | EGDSEIYYYAN | GKNNRPS | SSRDSSEFQVF | 3.21 3.42 4.42 | 3.68 | 3/9 (4.40) |
| 9 | EGDSIRYYYAN | GKNNRPT | SSRDSSGFQVI | 3.49 3.59 nd | 3.54 | 5/9 (3.94) |
| 10 | EGDSLRYYYMN | GKNMRPS | NSRDSSGFQVF | nd nd nd | nd | 0/9 |
| 11 | EGDSLRQYKAN | GKNNRPS | SSRISSGFQVF | 4.61 4.21 2.83 | 3.89 | 2/9 (3.76) |
| 12 | EGDSLRYYYYN | GKNNRPS | SSCDVSGFQVF | 3.54 nd nd | 3.54 | 6/9 (4.48) |
| 13 | EGDGLRYYYAN | GKNRRPS | ASRDSSGFQVF | 3.16 2.86 2.51 | 2.84 | 2/9 (4.17) |
| 14 | EGASLRYFYAN | GKNMRPS | SSRDSSGFQVF | 2.47 2.44 2.41 | 2.44 | 6/9 (4.37) |
| 15 | EGDSLFCMYAN | GKNNRPS | SSRDSSGFQVF | 2.62 2.63 2.39 | 2.55 | 1/9 (3.29) |
| 16 | EGDSNRYHYAN | GKNNRPS | SSRHSSGFQVF | 2.56 2.34 1.99 | 2.30 | 2/9 (3.92) |
| 17 | EGDSLRYYYAR | GKNMRPS | SSRDSSGFYVF | 4.09 nd nd | 4.09 | 4/9 (4.35) |
| 18 | GGDSLRYYYAN | GKNNRPS | SIRDSSGFQVF | 2.49 2.54 2.09 | 2.37 | 6/9 (3.73) |
| 19 | EGDSLRYYYAN | GKNNRKS | SSRNSSGFHVF | 3.74 nd 3.13 | 3.44 | 0/9 |
| 20 | CGDSQRIYYAN | GKNNRPS | SSRDSSGFQVF | 4.19 4.35 3.95 | 4.16 | 2/9 (3.26) |
| 21 | EGDGLRYYYAN | SKNNRPS | SSRDSSGRQVF | 2.51 2.38 2.89 | 2.59 | 2/9 (3.49) |
| 22 | EGDSLCYYYAN | GKNNRPS | SSRDSSGFQVF | 2.77 1.99 2.59 | 2.45 | 2/9 (3.65) |
| 23 | EGDSLRFYRAN | SKNNRPS | SSRDSSGFQVF | 3.67 3.88 3.36 | 3.64 | 6/9 (3.88) |
| 24 | QGDSLRYIYAN | GKNNRPS | SSRDSSGFQVF | 3.07 2.92 3.57 | 3.19 | 5/9 (4.40) |
| 25 | EGDSLRYYPAN | GKNNRPS | SSRDSSGFRVF | 1.54 1.45 1.22 | 1.40 | 4/9 (4.12) |
| 26 | EGDSEKYYYAN | GKNNRPS | SSRDSSGFQVF | 3.58 3.07 3.81 | 3.49 | 2/9 (4.30) |
| 27 | EGDSLCYYYKN | GKNNRPS | SSRDDSGFQVF | nd nd nd | nd | 1/9 (4.21) |
| 28 | EGDSLRYYYAN | GKANIMS | SSRDSSGFQVF | 3.61 nd nd | 3.61 | 2/9 (4.62) |
| 29 | EGDSLRYYYAN | GKNNRPS | ASRDKSGFQIF | nd nd nd | nd | 1/9 (3.61) |
| 30 | EGDSLRYYYAN | GKNYRPS | SSRDSSGFQVF | 2.83 2.42 1.46 | 2.24 | 3/9 (4.16) |

Repeated from above, the 5 best binders with a signal in all replicates:

| CDR-L1 | CDR-L2 | CDR-L3 | log10 Kd (nM) by replicate | log10 Kd (nM), mean | empty controls |
|---|---|---|---|---|---|
| EGDSLRYYPAN | GKNNRPS | SSRDSSGFRVF | 1.54 1.45 1.22 | 1.40 | 4/9 (4.12) |
| EGDSLRYYYAN | GKNYRPS | SSRDSSGFQVF | 2.83 2.42 1.46 | 2.24 | 3/9 (4.16) |
| EGDSNRYHYAN | GKNNRPS | SSRHSSGFQVF | 2.56 2.34 1.99 | 2.30 | 2/9 (3.92) |
| GGDSLRYYYAN | GKNNRPS | SIRDSSGFQVF | 2.49 2.54 2.09 | 2.37 | 6/9 (3.73) |
| EGASLRYFYAN | GKNMRPS | SSRDSSGFQVF | 2.47 2.44 2.41 | 2.44 | 6/9 (4.37) |

For reference, the parent read 2.31 as the reference entry and 2.25 as a member of this library.
Empty control strains, which show no peptide, gave a signal in 28% of pairings with library AAYL52; the median was 3.91 and 95% of these signals were weaker than 2.90. No background was subtracted. The control count says in how many pairings with the empty strains this scFv gave a signal, with their mean in brackets.